Tests used:
Format in all cases: cell-based
[1] = system: human umbilical vein endothelial cells (HUVEC), VEGF-independent proliferation; assay: VEGF-independent HUVEC proliferation inhibition assay; settings: vascular endothelial cell growth-promoting agent and heparin, 72 hours, WST-1, read-out: 50% proliferation inhibitory concentration (IC50 value) HUVEC (VEGF-independent)
Protocol: (§1) The compounds according to the present invention were measured for cancer cell proliferation inhibitory activity and human umbilical vein endothelial cell (HUVEC) proliferation inhibitory activity. As control compounds, the following known Compound A (BAY 43-9006) and Compound B were used.
(§2) Test compounds were serially diluted with dimethyl sulfoxide and then diluted 50 times with Ca^2+- and Mg^2+-free phosphate-buffered saline, and 20 μL of each of the resulting solution was dispensed into a 96-well plate. Separately, cell suspensions of human colon cancer cell line HCT116 cells suspended in McCoy's 5a culture medium supplemented with 10% fetal bovine serum, human umbilical vein endothelial cells (HUVECs: purchased from Clonetics) suspended in PRMI 1640 culture medium supplemented with 10% fetal bovine serum, 30 μg/mL of vascular endothelial cell growth-promoting agent, and 50 μg/mL of heparin for VEGF-independent HUVEC proliferation inhibition assay, and HUVECs suspended in PRMI 1640 culture medium supplemented with 10% fetal bovine serum and 20 ng/mL of VEGF for VEGF-dependent HUVEC proliferation inhibition assay were prepared. Each cell suspension contains approximately 3000 cells/180 μL. […] 20 μL of WST-8 (HCT116, Dojin) or WST-1 (HUVEC, Roche Diagnostics) was added to each well, and absorbance at 450 nm (reference wavelength: 650 nm) was measured. […]

[2] = system: human colon cancer cell line HCT116 cells; assay: Cell proliferation inhibitory activity, HCT116; settings: HCT-116, HCT116, 72 hours, WST-8, read-out: 50% proliferation inhibitory concentration (IC50 value) HCT116
Protocol: as §1, §2

[3] = system: human umbilical vein endothelial cells (HUVEC), VEGF-dependent proliferation; assay: VEGF-dependent HUVEC proliferation inhibition assay; settings: 20 ng/mL of VEGF, 72 hours, WST-1, read-out: 50% proliferation inhibitory concentration (IC50 value) HUVEC (VEGF-dependent)
Protocol: as §1, §2

[4] = system: tube formation of human-derived vascular endothelial cells (HUVEC); assay: Tube formation inhibition test (angiogenesis assay kit, KURABO); settings: 264 h, final concentration 6.4 nM, 11 days, read-out: Tube formation inhibition ratio (%)
Protocol: Each test compound was added to an angiogenesis assay kit (KURABO) so that the final concentration was 6.4 nM and incubated in a 5% carbon dioxide gas incubator at 37° C. for 11 days. The formed tubes were stained with a tube staining kit CD31 (KURABO). The stain image of each well was taken under a microscope, stored in an image file, and measured for the tube formation area using angiogenesis quantitative analysis software of KURABO. The inhibition ratio % of each test compound added to the well was calculated, provided that the ratio of the reference was 100%.

## CNC(=O)c1cc(Oc2ccc(NC(=O)Nc3ccc(Cl)c(C(F)(F)F)c3)cc2)ccn1 [Compound A, BAY 43-9006, reference compound]
[1]
  IC50: 4.6 µM
[2]
  IC50: 3000 nM
[3]
  IC50: 21 nM
[4]
  inhibition at 0.0064 µM: 21%

From patent publication US8299252B2, “Pyrazolopyridine and pyrrolopyridine multikinase inhibitors” (Chugai Seiyaku Kabushiki Kaisha, priority 2005, dated 2012)
